# In PubChem BioAssay AID957 (National Center for Advancing Translational Sciences (NCATS), 2007):
# Sequences of proteins named here, by UniProt entry; tags and fusion partners are left off. A change or cut given only in a name is not applied to a line headed by its entry.
# UniProt P06280: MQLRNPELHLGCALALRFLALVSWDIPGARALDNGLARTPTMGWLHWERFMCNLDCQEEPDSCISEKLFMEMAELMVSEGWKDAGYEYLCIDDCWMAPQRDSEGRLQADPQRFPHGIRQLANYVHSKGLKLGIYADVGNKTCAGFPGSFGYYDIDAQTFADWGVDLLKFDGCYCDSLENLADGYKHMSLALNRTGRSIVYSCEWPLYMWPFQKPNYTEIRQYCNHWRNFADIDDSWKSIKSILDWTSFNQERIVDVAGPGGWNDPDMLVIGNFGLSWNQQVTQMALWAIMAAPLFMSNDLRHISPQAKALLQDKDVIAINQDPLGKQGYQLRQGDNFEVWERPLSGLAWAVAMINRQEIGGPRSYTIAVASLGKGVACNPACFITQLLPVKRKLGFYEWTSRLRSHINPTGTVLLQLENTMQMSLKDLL
# Some of the results follow. The source made the active and inactive calls. Calls come from the whole dose curve; as a rule, active = well fitted curve in the direction sought with a large enough effect; inconclusive = small, poorly fitted or top-dose-only effect, or another doubt; inactive = no such curve, though single readings can be large or run the other way.
# Target: Alpha-galactosidase A (Homo sapiens) (UniProt P06280)
# Assay: Counterscreen for Glucocerebrosidase Inhibitors: qHTS Assay for Coffee Bean alpha-Galactosidase at pH 4.5;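 note: plate controls were enzyme alone for no effect and no enzyme for full effect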
# Settings: purified coffee bean alpha-galactosidase, fluorogenic substrate; at 76.9 µM (top of the series)
# Procedure, shortened: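 Coffee bean enzyme (2 nM) with 80 uM 4-methylumbelliferyl alpha-D-galactopyranoside in 50 mM citric acid, 0.005% Tween-20, pH 4.5, 20 min at room temperature; compounds 0.7 nM–77 uM. Stopped at pH 10, fluorescence 365/440 nm; AC50 from Hill fits.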
row,SMILES,"activity change, negative = inhibition"
1,CN(C(=O)Cc1ccc(Cl)c(Cl)c1)[C@@H]1CCCC[C@H]1N1CCCC1,inactive: -2.82% [middle of 4 runs]
2,CN(C(=O)Cc1ccc(Cl)c(Cl)c1)[C@@H]1CC[C@@]2(CCCO2)C[C@H]1N1CCCC1,inactive: 1.5%
3,CN(C(=O)Cc1ccccc1)[C@@H]1CC[C@@]2(CCCO2)C[C@H]1N1CCCC1,inactive: 0.127%
4,CN(CCCl)Cc1cc(Cl)c(NC2=NCCN2)c(Cl)c1,inactive: -0.236%
